Assay results reported in US12637513B2, “Method of treating cancer by administering an inhibitor of erythropoietin receptor activity comprising either erythropoietin receptor or erythropoietin protein” (ImmunEdge, Inc., priority 2022, dated 2026).

B1: EPORab - M80: hybridoma antibody clone, VH/VK in Table 10 (antibody, V domains shown)
VH: QVQLVESGGGLVKPGGSLRLSCAASGFTFSDSYMSWIRQAPGKGLEWVSYISNSGSYMYYADSVKGRFTISRDNAKNSLYLQMNNLRAEDTAVYYCARDKLGIGDYWGQGTLVTVSS
VL: DIVMTQSPLSLPVTPGEPASISCRSSQSLLHSNGYNYLDWYLQKPGQSPQLLIYLGSNRASGVPDRFSGSGSGTDSTLKISRVEAEDVGVYYCMQVLQIPLTFGGGTKVEIR
B2: EPORab - M26: hybridoma antibody clone, VH/VK in Table 10 (antibody, V domains shown)
VH: QVQLVQSGVEVKKPGASVKVSCKASGYAFSNNDISWVRQAPGQGLEWMAWITTSNGNTNYAPKLQGRVTMTTDTSTSTAYMELRSLKSDDTAVYYCARGGRTGYFDYWGQGTLVTVSS
VL: DIVMTQSPLSLPVTPGEPASISCRSSQSLLHSNGYNYLDWYLQKPGQSPQLLIYLGSNRASGVPDRFSGSGSGTDSTLKISRVEAEDVGVYYCMQVLQIPLTFGGGTKVEIR

Target: T1, EPO/EPOR interaction (EPOR-CD131-Fc and EPO) (Homo sapiens, UniProt P19235+P32927)
T1 construct: Chimeric Fc fusion proteins of the extracellular domains of human EPOR and human CD131; purchased Sino Biological CT010-H02H
T1 sequence (P19235 25-250 limits assumed): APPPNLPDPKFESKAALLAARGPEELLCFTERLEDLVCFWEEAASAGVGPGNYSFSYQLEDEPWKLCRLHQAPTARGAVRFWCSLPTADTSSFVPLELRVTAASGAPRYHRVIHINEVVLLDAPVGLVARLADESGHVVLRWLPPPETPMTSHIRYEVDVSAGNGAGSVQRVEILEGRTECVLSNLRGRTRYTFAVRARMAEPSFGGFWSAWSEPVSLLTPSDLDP
T1 sequence (P32927 17-443 limits assumed): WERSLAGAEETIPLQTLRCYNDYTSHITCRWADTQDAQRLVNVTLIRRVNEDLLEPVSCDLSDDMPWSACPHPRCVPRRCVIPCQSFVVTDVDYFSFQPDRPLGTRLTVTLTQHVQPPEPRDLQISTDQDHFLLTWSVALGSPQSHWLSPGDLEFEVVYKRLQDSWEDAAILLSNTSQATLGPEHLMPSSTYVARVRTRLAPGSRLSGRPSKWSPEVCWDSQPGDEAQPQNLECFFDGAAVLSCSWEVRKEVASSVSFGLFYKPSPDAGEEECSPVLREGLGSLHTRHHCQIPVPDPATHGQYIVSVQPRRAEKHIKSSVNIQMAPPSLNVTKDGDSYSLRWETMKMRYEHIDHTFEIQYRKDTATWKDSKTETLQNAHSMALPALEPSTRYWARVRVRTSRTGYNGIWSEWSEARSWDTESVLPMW
Test: Octet blocking of the EPO/EPOR interaction by hybridoma supernatants
Format: binding
Conditions: EPO 10 nM

Molecule	blocking of the EPO/EPOR interaction
B1	did not block
B2	partial blocking
